Results from ChEMBL document CHEMBL2380288, “Design, synthesis, and molecular modeling of novel pyrido[2,3-d]pyrimidine analogues as antifolates; application of Buchwald-Hartwig aminations of heterocycles” (J Med Chem, 2013).

How the values were obtained:
[1] = Selectivity ratio of Pneumocystis carinii DHFR over human recombinant DHFR
[2] = Selectivity ratio of Toxoplasma gondii DHFR over human recombinant DHFR
Pneumocystis jirovecii = assay: Ratio of trimethoprim IC50 to compound IC50 for Pneumocystis jirovecii DHFR

Structure (SMILES) | Selectivity ratio [1] | Selectivity ratio [2] | Ratio IC50 (Pneumocystis jirovecii)
COc1ccc(OC)c(CN(C)c2cnc3nc(N)nc(N)c3c2)c1 | 101 | 303 | –
CN(c1cc(F)c(F)c(F)c1)c1cnc2nc(N)nc(N)c2c1 | – | – | 30
